Reference: patent US20220257752A1, “NEW USE OF CYCLIC DINUCLEOTIDES” (priority 2019, published 2022)

System: CD4+ and CD8+ T cell populations
Assay: Mouse vaccination with OVA and adjuvant: intracellular cytokine staining of antigen-specific T cells
Settings: for CD8+ T cell responses for any cytokine or its combinations: mice vaccinated as adults (prime + 2 boosts); for effect of a neonatal dose on multiple cytokine producers: neonatal dose given versus skipped

SMILES	frequency of triple cytokine producers (IFN-γ, TNF-α and IL-2) among CD8+ T cells (administered at neonatal age)	CD8+ T cell responses for any cytokine or its combinations	frequency of triple, double and single cytokine producers (neonatal dose compared with group where neonatal dose was skipped)	effect of a neonatal dose on multiple cytokine producers	stimulation of multifunctional T cells (neonatal priming versus priming at a later age)	vaccination potency by sub-cutaneous route (sub-cutaneous vaccination, versus alum salts)	frequency of multifunctional T cells expressing IFN-γ, TNF-α and IL-2 (i.n. vaccination with OVA, neonatal prime + 2 boosts)	CD4+ T cells that produce any combination of IFN-γ, TNF-α, IL-17 and IL-2 (neonatal dose compared to neonatal dose skipped or adult controls)	multifunctional CD8+ T cells (neonatal priming compared to neonatal dose skipped)
Nc1ncnc2c1ncn2[C@@H]1O[C@@H]2COP(=O)(O)O[C@H]3[C@@H](O)[C@H](n4cnc5c(N)ncnc54)O[C@@H]3COP(=O)(O)O[C@H]2[C@H]1O [CDA, cyclic bis(3′-5′)diadenylic acid]	increased	responses were stronger	increased	beneficial effects	better stimulation	superiority to alum salts	–	–	–
CCOCc1nc2c(N)nc3ccccc3c2n1CC(C)(C)O [R848, reference compound]	–	responses were stronger	–	negative effects	–	–	did not significantly increase	reduced	reduced
